These results are taken from doi:10.1101/2023.04.01.535208.

Assay [1] deals with vasopressin type 2 receptor (V2R) (UniProt P30518).
The target in assay [2] is chimeric V2R harboring the carboxy-terminal tail of the β2-adrenergic receptor (V2β2AR).
The target of assay [3] is vasopressin type 2 receptor (V2R) (UniProt P30518). The source holds these as a separate data set.

As to arginine vasopressin (AVP) (peptide), in assay [1], the potency of AVP for V2R-driven recruitment of Rluc-mGs to early endosomes (EbBRET with rGFP-Rab5), parental HEK293 cells, 45 minutes was -8.37 LogEC50; the potency of AVP for V2R-driven recruitment of Rluc-mGs to early endosomes (EbBRET with rGFP-Rab5), Δβarr1/2 HEK293 cells, 45 minutes is -8.34 LogEC50; the potency of AVP for V2R-driven recruitment of Rluc-mGs to the plasma membrane (EbBRET with rGFP-CAAX), parental HEK293 cells, 10 minutes was -7.9 LogEC50; the potency of AVP for V2R-driven recruitment of Rluc-mGs to the plasma membrane (EbBRET with rGFP-CAAX), Δβarr1/2 HEK293 cells, 10 minutes was -7.99 LogEC50. Further, in assay [1], the potency of AVP for V2R-driven recruitment of Rluc-mGsq to early endosomes (EbBRET with rGFP-Rab5), parental HEK293 cells, 45 minutes was -8.38 LogEC50; the potency of AVP for V2R-driven recruitment of Rluc-mGsq to early endosomes (EbBRET with rGFP-Rab5), Δβarr1/2 HEK293 cells, 45 minutes was -8.32 LogEC50; the potency of AVP for V2R-driven recruitment of Rluc-mGsq to the plasma membrane (EbBRET with rGFP-CAAX), parental HEK293 cells, 10 minutes is -7.81 LogEC50; the potency of AVP for V2R-driven recruitment of Rluc-mGsq to the plasma membrane (EbBRET with rGFP-CAAX), Δβarr1/2 HEK293 cells, 10 minutes is -7.95 LogEC50. In assay [2], this substance showed a potency of AVP for recruitment of Rluc-mGs to early endosomes (EbBRET with rGFP-Rab5), cells expressing V2β2AR of -8.34 LogEC50; a potency of AVP for recruitment of Rluc-mGs to the plasma membrane (EbBRET with rGFP-CAAX), cells expressing V2β2AR of -8.07 LogEC50; a transduction coefficient (operational model) of AVP for recruitment of Rluc-mGs to early endosomes, cells expressing V2β2AR of 8.31 Logτ/Ka. In addition, in assay [3], the potency of AVP for recruitment of Rluc-mGs to early endosomes (EbBRET with rGFP-Rab5), cells expressing V2R was -8.65 LogEC50; the potency of AVP for recruitment of Rluc-mGs to the plasma membrane (EbBRET with rGFP-CAAX), cells expressing V2R is -8.07 LogEC50; the potency of AVP for recruitment of Rluc-mGsq to early endosomes (EbBRET with rGFP-Rab5), cells expressing V2R is -8.44 LogEC50; the potency of AVP for recruitment of Rluc-mGsq to the plasma membrane (EbBRET with rGFP-CAAX), cells expressing V2R was -7.88 LogEC50. In assay [3], this substance displayed a transduction coefficient (operational model) of AVP for recruitment of Rluc-mGs to early endosomes, cells expressing V2R of 8.63 Logτ/Ka; a transduction coefficient (operational model) of AVP for recruitment of Rluc-mGs to the plasma membrane, cells expressing V2R of 7.98 Logτ/Ka; a transduction coefficient (operational model) of AVP for recruitment of Rluc-mGsq to early endosomes, cells expressing V2R of 8.31 Logτ/Ka; a transduction coefficient (operational model) of AVP for recruitment of Rluc-mGsq to the plasma membrane, cells expressing V2R of 7.9 Logτ/Ka.
